The values that follow are results of earlier work, collected in patent publication US12269857B2, “Protein tyrosine-tyrosine analogs and methods of using the same” (Eli Lilly and Company, priority 2018, dated 2025).

The conditions of this series: exogenously administered; cited from earlier work.

For orientation: half-life means the time in which the quantity being followed falls by half. Regarding PYY3-36, the half-life is 10 to 15 min.
